Experimental data as given in ChEMBL document CHEMBL1133251, “Synthesis and biological evaluation of 1-azabicyclo-[3.2.1]octanes: new dopamine transporter inhibitors” (Bioorg Med Chem Lett, 2000).

By UniProt entry, the sequences of proteins in these tests, tags left out.
UniProt P23977, whole entry: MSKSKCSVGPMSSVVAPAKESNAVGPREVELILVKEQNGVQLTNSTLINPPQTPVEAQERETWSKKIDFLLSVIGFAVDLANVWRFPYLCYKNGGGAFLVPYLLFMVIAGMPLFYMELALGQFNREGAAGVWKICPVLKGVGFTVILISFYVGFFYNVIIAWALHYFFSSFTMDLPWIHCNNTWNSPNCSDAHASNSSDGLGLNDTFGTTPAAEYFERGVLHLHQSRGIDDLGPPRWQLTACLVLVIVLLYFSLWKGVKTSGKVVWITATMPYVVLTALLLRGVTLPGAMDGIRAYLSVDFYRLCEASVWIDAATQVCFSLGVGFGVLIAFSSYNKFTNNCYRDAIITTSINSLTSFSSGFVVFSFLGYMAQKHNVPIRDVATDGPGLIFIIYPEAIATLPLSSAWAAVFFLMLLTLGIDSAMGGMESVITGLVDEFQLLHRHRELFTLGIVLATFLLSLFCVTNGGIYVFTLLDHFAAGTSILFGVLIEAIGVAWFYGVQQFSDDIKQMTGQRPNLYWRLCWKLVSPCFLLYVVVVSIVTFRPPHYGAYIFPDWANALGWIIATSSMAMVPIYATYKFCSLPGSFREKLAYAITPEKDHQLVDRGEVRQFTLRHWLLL
UniProt Q9WTR4, whole entry: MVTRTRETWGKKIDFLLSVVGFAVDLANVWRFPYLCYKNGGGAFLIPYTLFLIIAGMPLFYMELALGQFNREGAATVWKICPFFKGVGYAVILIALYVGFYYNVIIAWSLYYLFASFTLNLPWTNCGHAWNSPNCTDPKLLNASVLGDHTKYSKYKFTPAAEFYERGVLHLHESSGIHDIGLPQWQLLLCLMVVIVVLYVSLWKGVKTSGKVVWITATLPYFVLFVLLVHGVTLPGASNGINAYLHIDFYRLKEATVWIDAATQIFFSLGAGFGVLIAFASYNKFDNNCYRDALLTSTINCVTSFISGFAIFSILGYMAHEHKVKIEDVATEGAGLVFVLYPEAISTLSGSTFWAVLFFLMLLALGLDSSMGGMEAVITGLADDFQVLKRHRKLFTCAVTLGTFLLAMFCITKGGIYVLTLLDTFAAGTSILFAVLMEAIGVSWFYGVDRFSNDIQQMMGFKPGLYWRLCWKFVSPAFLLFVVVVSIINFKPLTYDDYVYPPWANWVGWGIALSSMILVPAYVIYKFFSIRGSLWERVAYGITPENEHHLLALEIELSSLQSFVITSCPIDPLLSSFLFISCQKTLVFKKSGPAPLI

Legend:
[1] = target: Sodium-dependent dopamine transporter (Rattus norvegicus, UniProt P23977); test: Inhibition of [3H]- Mazindol binding to dopamine transporter of rat striatal membrane.
[2] = target: Norepinephrine transporter (Rattus norvegicus, UniProt Q9WTR4); test: Inhibition of [3H]NE binding to norepinephrine transporter of rat brain synaptosomes; assay type: subcellular

| SMILES | Ki [1] [nM] | Ki [2] [nM] |
| --- | --- | --- |
| Clc1ccc([C@@H]2CCN3C/C(=N\OCc4ccccc4)C2C3)cc1 (some centres not stated) | 1000 | – |
| COC(=O)[C@H]1[C@@H](OC(=O)c2ccccc2)C[C@@H]2CC[C@H]1N2C [COCAINE] | – | 186 |
